## Apparent affinities of Ab-14 variants for a coronavirus HR2 peptide

The measurements come from Engelhart et al. 2022 (doi:10.1038/s41597-022-01779-4) through the FLAb antibody collection.

Target peptide (SARS-CoV-2 spike, HR2 region): PDVDLGDISGINAS

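The starting antibody came from a phage panning campaign against this peptide. In library AAYL50, one, two or three CDR residues were substituted; doubles and triples were drawn at random. Affinity was read by AlphaSeq, a pooled yeast mating assay with surface-displayed partners. After mating in shaken culture at 30 °C for 16 h, diploids were selected and their barcode pairs sequenced. A regression on co-assayed BCL2-family reference pairs converts the normalised counts of each replicate to an apparent Kd. Each pool was mated in three replicate cultures.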

Each scFv is VH, a 15-residue (Gly4Ser)3 linker, VL, as in the parent Ab-14, and differs from it in the CDRs of the light chain only.
VH: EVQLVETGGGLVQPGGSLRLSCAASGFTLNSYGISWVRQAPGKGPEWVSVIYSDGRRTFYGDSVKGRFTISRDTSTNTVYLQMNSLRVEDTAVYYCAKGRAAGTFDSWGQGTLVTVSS
VL: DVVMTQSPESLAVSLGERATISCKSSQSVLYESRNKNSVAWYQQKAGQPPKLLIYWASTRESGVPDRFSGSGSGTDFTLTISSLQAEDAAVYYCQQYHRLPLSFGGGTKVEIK

Positions count from residue 1 of the parent VL; S28D puts D in place of S. All variants listed here change S28 of the VL, counted from its first residue. Values are apparent Kd, the geometric mean of the replicates that gave a signal; lower means stronger binding. "no signal" means that the variant was in the library but no mating with the target was seen in any replicate; the authors take this as a sign of poor binding, and no number exists. As a blank, each scFv also met three strains without target: over library AAYL50, 18% of these pairings were detected, typically at 15 µM and seldom below 970 nM.

The variant S28D N35L R99P gave 21 µM (3 of 3 replicates). The variant S28P V29N A40Y showed no signal (0 of 3 replicates). For S28Q K36M S62V, the assay gave 9.2 nM (3 of 3 replicates). The variant S28Y N37D Y97D gave no signal (0 of 3 replicates). The variant S25M S28P gave 980 nM (1 of 3 replicates). With S28D N35R S58N the result was 20 nM (3 of 3 replicates). For S28W H98M, the assay gave no signal (0 of 3 replicates). The variant S28C E61H gave 3.3 µM (3 of 3 replicates). The variant S28Q V29C S62Y showed 30 nM (3 of 3 replicates).

With S28Y E32W Y97C the result was 10 µM (3 of 3 replicates). The variant S28R Q95D H98W showed 33 nM (3 of 3 replicates). The variant S28M V29H A57Y gave no signal (0 of 3 replicates). The variant S25T S28G S38H gave 11 nM (3 of 3 replicates). For S28G S33G S103P, the assay gave 10 nM (3 of 3 replicates). With S28Y Y97D S103V the result was 37 µM (1 of 3 replicates). The variant S28I V29L Y31A showed 300 nM (3 of 3 replicates). With S28K Q96D H98R the result was 14 nM (3 of 3 replicates). With S25C S28V P101Y the result was 11 nM (3 of 3 replicates).

The variant S25T S28N W56N gave 580 pM (3 of 3 replicates). The variant K24F S28L R34C gave 1.5 µM (3 of 3 replicates). The variant S28M A57M E61V showed 2.6 µM (3 of 3 replicates). The variant Q27V S28K showed 26 nM (3 of 3 replicates). The variant S28W V29Q L100R gave 74 nM (3 of 3 replicates). For S28P P101A, the assay gave 15 nM (3 of 3 replicates). For S28C S38I, the assay gave no signal (0 of 3 replicates). For K24C S28G A57I, the assay gave no signal (0 of 3 replicates). The variant Q27V S28F E61R showed 670 nM (2 of 3 replicates).

The variant S28E S38F R99T gave 470 nM (3 of 3 replicates). With S28G E61G the result was 45 nM (3 of 3 replicates). With S28A Y31Q L100D the result was 67 nM (3 of 3 replicates). For K24D S26N S28V, the assay gave 8.1 µM (3 of 3 replicates). With Q27F S28N T59W the result was no signal (0 of 3 replicates). The variant S28I P101K gave 680 nM (3 of 3 replicates). The variant S28D E32H R34G showed 180 nM (3 of 3 replicates). With S28C L30F E61S the result was no signal (0 of 3 replicates). The variant S28C Q96R P101H showed 3.6 µM (1 of 3 replicates).

The variant S28K S38V S62H gave 2.2 µM (1 of 3 replicates).

Excerpt, the first 4 entries:

{"changes": "S28D N35L R99P", "Kd": "21 µM", "replicates with signal": "3/3"}
{"changes": "S28P V29N A40Y", "Kd": "no signal", "replicates with signal": "0/3"}
{"changes": "S28Q K36M S62V", "Kd": "9.2 nM", "replicates with signal": "3/3"}
{"changes": "S28Y N37D Y97D", "Kd": "no signal", "replicates with signal": "0/3"}